Screening results: PubChem BioAssay, National Center for Advancing Translational Sciences (NCATS)
In the library only some 3.7% were active in any assay of this set; here they are far more common.
miR-21 reporter: miR-21 reporter, rising signal; HeLa miR-21 FLuc reporter, luciferase, 48 h; Potency, µM (top dose mostly 38.3 µM); 340,000 tested, under 10 active; active = well fitted rising curve with a large enough effect; inconclusive = small, poorly fitted or top-dose-only effect; inactive = no such curve, though single readings can be large or run the other way;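 note: miR-21 action dims this reporter so a rising signal means less miR-21 action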
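Using DMEM plus 10% FBS, HeLa miR-21-FLuc cells are incubated with test compounds (final up to about 40uM) for 48 hours; firefly luciferase signal is then imaged following reagent-mediated lysis.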
Nrf2 activator: Nrf2 pathway activation | AREc32 ARE-luciferase reporter (MCF7-derived line), luminescence, 24 h | Potency, µM (doses to about 46.1 µM), most hits filed as activators | 0.31% of 410,000 active | AID 624171; note: nearly all actives have a fitted effect of over 65% in size
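AREc32 cells carrying an ARE-driven firefly luciferase, 1000 cells/well in OPTI-MEM with 5% FBS, dosed after overnight attachment and incubated 24 hr at 37 deg C. Steady-Glo luminescence read after 30 min at RT.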
A549 tox: A549 cytotoxicity, counter-screen for Nrf2 inhibitors. A549 ARE-Fluc cells, CellTiter-Fluor viability, 18-24 h. Potency, µM (highest dose often 46 µM), most hits filed as inhibitors. 0.16% of 390,000 active
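A549 ARE-Fluc cells in 5% FBS OPTI-MEM, 5000 cells/well, rested 2 h then exposed to compounds in concentration-response for 18-24 h at 37 °C. Viability by CellTiter-Fluor fluorescence (Ex 405/Em 525) after 30 min; luciferase luminescence (BugLite, 15 min, RT) read afterwards.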
ClpP mod: qHTS Assay for Activators of ClpP. ATP-dependent Clp protease proteolytic subunit (Bacillus subtilis (strain 168)), P80244. purified B. subtilis ClpP, FRET peptide cleavage, 20 min. Potency, µM (top dose mostly 57.5 µM). 1.9% of 340,000 active. AID 651965, 2013; active = well fitted falling curve with a large enough effect; inconclusive = small, poorly fitted or top-dose-only effect; inactive = no such curve, though single readings can be large or run the other way; note: the source files actives as falling curves though it sought activators and does not explain the sign; nearly all actives have a fitted effect of over 65% in size
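ClpP 10 microg/mL final, pH 8 Tris/KCl buffer with BSA, glycerol, Tween-20; compound pinned in; FRET-FV substrate; RT 20 min; Ex320/Em430; ΔFRET vs ADEP 5.8 microM, DMSO, no enzyme.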
Nrf2 inh: blocks Nrf2 signaling. 2.1% of 360,000 active. Potency, µM (doses to about 46 µM), usual class: inhibitors. AID 504444. A549 ARE-Fluc reporter, luciferase luminescence, 18-24 h; note: nearly all actives have a fitted effect of over 60% in size
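A549 ARE_Fluc cells, 5000/well, 5% FBS OPTI-MEM; compounds in dose-response, 18-24 h at 37 °C/5% CO2; CellTiter-Fluor viability read (Ex 405/Em 525), then BugLite luciferase luminescence = Nrf2 activity.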
TCR activator: T cell receptor activation; primary human leukocytes, anti-CD3, IL-2 HTRF, 48 h; Potency, µM (highest dose often 9.22 µM), hits mostly activators; 330,000 tested, under 10 active; AID 504894
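IL-2 produced over 48 hr by a-CD3 bead-stimulated primary human leukocytes exposed to compounds was detected with a homogeneous time-resolved FRET immunoassay, 665nm acceptor signal after 320nm excitation.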
Large screens that a line does not name were inactive. Unless noted, calls come from the whole dose curve; as a rule, active = well fitted curve in the direction sought with a large enough effect; inconclusive = small, poorly fitted or top-dose-only effect, or another doubt; inactive = no such curve, though single readings can be large; an effect the other way counts as inactive or inconclusive.

CCc1ccc(C(=O)c2cn(CC(=O)Nc3ccc(F)c(F)c3)c3cc(OC)c(OC)cc3c2=O)cc1	miR-21 reporter inconclusive, Nrf2 inh inconclusive (no result: TCR activator)
CCc1ccc(C(=O)c2cn(Cc3ccc(F)cc3)c3cc(OC)c(OC)cc3c2=O)cc1	A549 tox 21µM (no result: TCR activator)
Clc1ccc2nc(-c3ccncc3)cc(-c3ccccc3)c2c1	none
c1ccc(-c2cc(-c3ccncc3)nc3ccc4ccccc4c23)cc1	ClpP mod 22µM, Nrf2 inh inconclusive, TCR activator inconclusive
CC(=O)N(C)c1ccc(OCC(O)Cn2c3ccc(Cl)cc3c3cc(Cl)ccc32)cc1 (configuration not stated)	A549 tox inconclusive, Nrf2 inh 21µM
COc1cccc(NC(=O)C2CCCN(c3ncnc4onc(C)c34)C2)c1 (configuration not stated)	Nrf2 inh inconclusive (no result: TCR activator)
Cc1ccc(NC(=O)C2CCCN(c3ncnc4onc(C)c34)C2)cc1Cl (configuration not stated)	A549 tox inconclusive, Nrf2 inh 13µM (no result: TCR activator)
Cc1ccc(Cl)cc1N1CCN(c2ncnc3onc(C)c23)CC1	miR-21 reporter inconclusive, Nrf2 inh 21µM (no result: TCR activator)
C[C@H](CO)N1C[C@H](C)[C@H](CN(C)Cc2cccc(F)c2)Oc2ncc(Br)cc2C1=O	none (no result: miR-21 reporter, A549 tox, Nrf2 inh, TCR activator)
COc1cccc(NC(=O)Cc2ccccc2)c1	Nrf2 inh inconclusive
O=C(Cc1ccccc1)Nc1cccc(N2C(=O)C=CC2=O)c1	miR-21 reporter inconclusive, ClpP mod 14µM, Nrf2 inh inconclusive
O=C(NC1CC2CCC(C1)N2Cc1nnnn1Cc1ccco1)NC12CC3CC(CC(C3)C1)C2 (configuration not stated)	Nrf2 inh 4.1µM
CCOc1ccccc1C(=O)NC1CC2CCCC(C1)N2Cc1nnnn1Cc1ccco1 (configuration not stated)	none
CC(C)(C)c1ccc(C(=O)N2CCC2(C)C(=O)NCc2cccc3ccccc23)cc1 (configuration not stated)	none (no result: miR-21 reporter, A549 tox, Nrf2 inh, TCR activator)
COC(=O)C1=C(C)NC(C)=C(C(=O)OC)C1C(=O)OCCN1C(=O)c2ccccc2C1=O	ClpP mod 7.1µM
COc1ccc(C(=O)OCCN2C(=O)c3ccccc3C2=O)cc1OC	Nrf2 inh inconclusive (no result: miR-21 reporter)
CCOC(=O)N1CCN(c2ncnc3c2[nH]c2ccc(OC)cc23)CC1	ClpP mod 25µM, Nrf2 inh inconclusive
OC1(c2cccc(C(F)(F)F)c2)CCN(c2ncnc3c2[nH]c2ccc(F)cc23)CC1	miR-21 reporter inconclusive, A549 tox 21µM, ClpP mod inconclusive, Nrf2 inh 12µM
CCOc1ccc2[nH]c3c(N4CCC5(CC4)OCCO5)ncnc3c2c1	ClpP mod 32µM
CCOc1ccc2[nH]c3c(N4CCN(C(=O)c5ccco5)CC4)ncnc3c2c1	Nrf2 inh inconclusive (no result: ClpP mod)
CCOC(=O)N1CCN(c2ncnc3c2[nH]c2ccc(F)cc23)CC1	miR-21 reporter inconclusive, ClpP mod inconclusive, Nrf2 inh 15µM
O=C(CNC(=O)c1ccc([N+](=O)[O-])cc1)OC(C(=O)Nc1cc(C(F)(F)F)ccc1Cl)c1ccccc1 (configuration not stated)	none (no result: miR-21 reporter, Nrf2 activator, ClpP mod, TCR activator)
CCC(CC)C(=O)Nc1nnc(SCC(=O)NC2CC2)s1	none
CN(C)c1cc2c3ccccc3ccc2c2ccccc12	none (no result: miR-21 reporter, Nrf2 activator, A549 tox, Nrf2 inh, TCR activator)
O=S1(=O)c2ccc(Br)cc2N2CC[C@H](C2)N1Cc1ccc(Cl)cc1	none (no result: miR-21 reporter)
COc1ccc(N(CC(=O)NCCSCc2ccco2)S(=O)(=O)c2ccccc2)cc1Cl	A549 tox inconclusive, Nrf2 inh inconclusive
COc1ccc2[nH]c3c(N4CCc5ccccc5C4)ncnc3c2c1	miR-21 reporter inconclusive, A549 tox 18µM, Nrf2 inh 16µM
Fc1ccc2[nH]c3c(N4CCN(c5ccccc5)CC4)ncnc3c2c1	A549 tox inconclusive, Nrf2 inh 13µM
O=C(c1ccco1)N1CCN(c2ncnc3c2[nH]c2ccccc23)CC1	none (no result: Nrf2 activator, A549 tox, ClpP mod, Nrf2 inh, TCR activator)
Fc1ccc2[nH]c3c(Cl)ncnc3c2c1	none
O=C(c1ccco1)N1CCN(c2ncnc3c2[nH]c2ccc(Br)cc23)CC1	ClpP mod inconclusive, Nrf2 inh 8.2µM
COc1cccc(C2c3c(ncn(-c4cccc(F)c4)c3=N)Oc3ccc4ccccc4c32)c1 (configuration not stated)	Nrf2 inh inconclusive (no result: miR-21 reporter, Nrf2 activator, ClpP mod, TCR activator)
N#Cc1nc(Nc2cc(F)cc(F)c2)c2ncn(C3CCCC3)c2n1	Nrf2 inh inconclusive (no result: miR-21 reporter, Nrf2 activator, ClpP mod, TCR activator)
COc1ccc(NC(=O)c2cn(-c3ccccc3)nc2-c2ccncc2)cc1	none (no result: ClpP mod)
COc1ccc(-c2nn(-c3ccccc3)cc2C(=O)NC(=S)NNC(=O)c2ccncc2)cc1	Nrf2 inh 21µM
CC(=O)/C(=C/Nc1ccc(Oc2ccccc2)cc1)c1ccccc1	ClpP mod 7.9µM
COc1ccc(-c2nnc(Nc3nc4c(OC)cccc4s3)o2)cc1	ClpP mod 40µM
COc1ccc(-c2nnc(Nc3nc4c(OC)cccc4s3)o2)c(OC)c1	A549 tox inconclusive, ClpP mod 16µM
O=C(Nc1cccc2c1CCCC2)c1cc([N+](=O)[O-])cc([N+](=O)[O-])c1	ClpP mod 28µM
Cc1ccc(C(CNS(=O)(=O)c2ccc(F)cc2C)N2CCN(C)CC2)cc1 (configuration not stated)	none (no result: miR-21 reporter, ClpP mod)
O=C(CSc1nnc(Cc2ccccc2)n1Cc1ccco1)NC12CC3CC(CC(C3)C1)C2	Nrf2 inh 26µM (no result: TCR activator)
Cc1ccc(Cn2ncc3c4sc(C)cc4n(C)c3c2=O)cc1	none (no result: miR-21 reporter, Nrf2 activator, ClpP mod, TCR activator)
O=[N+]([O-])c1ccccc1N/N=C\c1ccccc1F	Nrf2 activator inconclusive, Nrf2 inh inconclusive (no result: ClpP mod)
O=[N+]([O-])c1ccccc1C=NNc1ccccc1	Nrf2 activator 6.3µM (no result: miR-21 reporter, ClpP mod)
O=[N+]([O-])c1ccccc1N/N=C\c1ccccc1Cl	Nrf2 activator 10µM, Nrf2 inh inconclusive
CCSc1nc(-c2cccc(Cl)c2)nc2c1Cc1c(CO)cnc(C)c1O2	Nrf2 inh inconclusive (no result: TCR activator)
O=C(COC(=O)c1ccc2c(c1)OCCO2)NCc1ccc(Cl)cc1	none (no result: miR-21 reporter, A549 tox, Nrf2 inh, TCR activator)
CCOC(=O)C1=C(C)NC(C)=C(C(=O)OCC)C1c1cn(-c2ccccc2)nc1-c1ccco1	ClpP mod inconclusive
CC(C)OC(=O)c1cn(-c2ccccc2)nc1-c1ccco1	Nrf2 activator 3.2µM
CCOC(=O)c1sc2nc(CSc3ccccc3)nc(N3CCC(C(N)=O)CC3)c2c1C	Nrf2 inh 21µM (no result: ClpP mod)
O=C(c1cc2ccccc2oc1=O)N(c1ccccc1)C1C=CS(=O)(=O)C1 (configuration not stated)	Nrf2 activator inconclusive, ClpP mod inconclusive
